Assay results taken from ChEMBL document CHEMBL1124394, “Synthesis and biological evaluation of 14-alkoxymorphinans. 2. (-)-N-(cyclopropylmethyl)-4,14-dimethoxymorphinan-6-one, a selective mu opioid receptor antagonist” (J Med Chem, 1989).

The chains behind the UniProt entries cited, without tags or fusion partners. Where a name states a change or a piece, a line headed by the entry shows the natural chain unless it says otherwise.
UniProt P33533, whole entry, looked up: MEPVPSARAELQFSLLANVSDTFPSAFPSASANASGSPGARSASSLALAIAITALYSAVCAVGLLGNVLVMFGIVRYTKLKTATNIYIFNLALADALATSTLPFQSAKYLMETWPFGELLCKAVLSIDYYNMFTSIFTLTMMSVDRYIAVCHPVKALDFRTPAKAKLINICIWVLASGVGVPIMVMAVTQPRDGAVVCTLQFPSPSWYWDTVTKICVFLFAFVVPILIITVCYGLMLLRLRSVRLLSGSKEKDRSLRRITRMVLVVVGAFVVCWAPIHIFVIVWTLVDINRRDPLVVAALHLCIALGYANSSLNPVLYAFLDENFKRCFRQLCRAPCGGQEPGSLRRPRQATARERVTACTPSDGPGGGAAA
UniProt P34975: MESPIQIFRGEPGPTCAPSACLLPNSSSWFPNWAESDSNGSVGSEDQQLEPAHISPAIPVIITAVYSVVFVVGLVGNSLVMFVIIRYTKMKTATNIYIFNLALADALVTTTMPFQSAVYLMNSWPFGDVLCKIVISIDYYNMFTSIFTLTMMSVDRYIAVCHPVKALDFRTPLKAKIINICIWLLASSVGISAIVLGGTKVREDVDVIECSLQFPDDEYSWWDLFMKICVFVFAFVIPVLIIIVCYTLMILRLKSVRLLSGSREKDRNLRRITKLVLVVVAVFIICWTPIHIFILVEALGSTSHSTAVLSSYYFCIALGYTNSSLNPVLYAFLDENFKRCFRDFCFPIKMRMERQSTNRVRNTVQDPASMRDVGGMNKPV
UniProt P33535, whole entry, looked up: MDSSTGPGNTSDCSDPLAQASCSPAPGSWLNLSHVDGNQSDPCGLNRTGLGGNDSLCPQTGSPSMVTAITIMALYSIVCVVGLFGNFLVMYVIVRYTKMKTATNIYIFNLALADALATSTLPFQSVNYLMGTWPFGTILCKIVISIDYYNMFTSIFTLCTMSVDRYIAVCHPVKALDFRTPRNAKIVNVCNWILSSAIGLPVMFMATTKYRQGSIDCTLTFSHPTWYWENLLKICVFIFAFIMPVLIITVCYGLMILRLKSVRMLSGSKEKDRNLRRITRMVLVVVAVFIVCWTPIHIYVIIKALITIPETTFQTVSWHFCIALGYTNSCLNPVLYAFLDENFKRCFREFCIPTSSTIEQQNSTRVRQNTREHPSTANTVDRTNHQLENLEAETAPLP

Columns and labels:
[1] = system: Oryctolagus cuniculus; test: Percent change of rate in the respiratory activity was measured in rabbit at 0.1 mg/kg dose given intravenously; conditions: route intravenous
[2] = target: Opioid receptor (Rattus norvegicus, UniProt P33533+P34975+P33535)

Structure (SMILES): CN(C(=O)Cc1ccc(Cl)c(Cl)c1)C1CCCCC1N1CCCC1 (configuration not stated)
- Rate change [1]: 29%
- IC50 [2]: 2150 nM
